Here are results for 1 molecule from US20240398727A1, “(S)-5-(1-(3,5-BIS(TRIFLUOROMETHYL)PHENOXY)ETHYL)CYCLOHEXANE-1,3-DIONE (NU-9) IMPROVES THE HEALTH OF DISEASED UPPER MOTOR NEURONS” (Northwestern University, priority 2021, published 2024).

Data set [1] concerns UMNs from prpTDP-43^A315T-UeGFP mice. It counts as cell-based. The settings on record: prpTDP-43^A315T-UeGFP UMNs, 3 days in vitro, riluzole 500 nM, edaravone 1 μM. The source says:
Mice. All animal procedures were approved by the Northwestern University Animal Care and Use committee and comply with the standards of the National Institutes of Health. All mice were on C57BL/6 background. Transgenic hemizygous males expressing a high copy number of the human SOD1 gene with a G93A mutation (B6SJL-Tg (SOD1*G93A)1Gur/J; The Jackson Laboratory) were bred to hemizygous UCHL1-eGFP females to generate hSOD1^G93A-UeGFP and WT-UeGFP (control) mice. UCHL1-eGFP mice were generated in the Ozdinler Lab; they are reporter lines for UMNs (Yasvoina, Genc et al. 2013), and are now available at Jackson Laboratory (stock no. 022476). Hemizygous UCHL1-eGFP females were bred to hemizygous prpTDP-43^A315T mice (procured from Jackson Laboratory, stock no. 010700) to generate prpTDP-43^A315T-UeGFP mice. prpTDP-43^A315T mice were supplied with gel diet (DietGel 76A, ClearH2O, ME, USA) to eliminate gastrointestinal (GI) complications. […]
UMNs were quantitatively analyzed for differences in neurite length and arborization complexity. Images taken with a 20× objective on the epifluorescent microscope (Nikon) were analyzed using the Neurite Tracer plugin from FIJI (NIH), which enables semi-autonomous tracing to measure the length of the axon. […]

The conditions of data set [2]: literature value; cited from earlier work.

With `Nc1nc2ccc(OC(F)(F)F)cc2s1` [riluzole, 2-Amino-6-(trifluoromethoxy)benzothiazole], the “average length of the axons of UMNs” value in data set [1] (NU-9 400 nM, SFM control 199.52±21.15 μm, WT 321.41±17.54 μm) is on record as 292.60±28.03 μm. In data set [1], the “percentage of UMNs with axons in the range of 200-399 μm” value is listed as 68%. In addition, in data set [2], the “concentration reported to be present in the CNS after the optimum dose used in clinical trials” value is 500 nM.
